# Laboratory results as given in PMC10033663, “Acute pharmacological profile of 2C-B-Fly-NBOMe in male Wistar rats—pharmacokinetics, effects on behaviour and thermoregulation” (Frontiers in Pharmacology, 2023).
# Test: Solubility on preparing the dosing solution
# Details: highest dose; deionized water and 20 μl of Tween 20
smiles,measurement,value
COc1ccccc1CNCCc1c2c(c(Br)c3c1OCC3)OCC2 [2C-B-Fly-NBOMe],solubility,poor solubility
